{"source": "paper PMC3553236", "about": "(Biochemical pharmacology, 2012)", "key": {"[1]": {"system": "MRP1-HEK293 (ABCC1) cells", "conditions": "up to 5 µM"}, "S1-M1-80 cells": {"system": "S1-M1-80 cells", "conditions": "IC50 S1-M1-80 / IC50 S1"}, "MCF7-FLV1000 cells": {"system": "MCF7-FLV1000 cells", "conditions": "IC50 MCF7-FLV1000 / IC50 MCF7"}, "KBV-1 cells": {"system": "KBV-1 cells", "conditions": "IC50 KBV-1 / IC50 KB-3–1"}, "MCF7-AdVp3000 cells": {"system": "MCF7-AdVp3000 cells", "conditions": "IC50 MCF7-AdVp3000 / IC50 MCF7"}, "CORL-23/R cells": {"system": "CORL-23/R cells", "conditions": "IC50 CORL-23/R / IC50 CORL-23/P"}, "[2]": {"system": "MDR19-HEK293 (ABCB1) cells", "test": "Cytotoxicity / MDR reversal assay, MDR19-HEK293", "format": "cell-based, human", "conditions": "up to 5 µM"}}}
{"smiles": "CCCS(=O)(=O)Nc1ccc(F)c(C(=O)c2c[nH]c3ncc(-c4ccc(Cl)cc4)cc23)c1F", "note": "[Vemurafenib]", "values": [{"measurement": "effect on ABCC1-mediated etoposide resistance", "setting": "[1]", "value": "no significant effect"}, {"measurement": "R.F (resistance factor)", "setting": "S1-M1-80 cells", "value": 1.08}, {"measurement": "R.F (resistance factor)", "setting": "MCF7-FLV1000 cells", "value": 1.10}, {"measurement": "R.F (resistance factor)", "setting": "KBV-1 cells", "value": 1.15}, {"measurement": "R.F (resistance factor)", "setting": "MCF7-AdVp3000 cells", "value": 1.31}, {"measurement": "R.F (resistance factor)", "setting": "CORL-23/R cells", "value": 1.00}, {"measurement": "effect on ABCB1-mediated doxorubicin resistance", "setting": "[2]", "value": "no significant effect"}]}
